Compound activity: PubChem BioAssay, National Center for Advancing Translational Sciences (NCATS)
In the library only some 3.7% were active in any assay of this set; here they are far more common.
A549 tox: kills or reduces viability of A549 cells in Nrf2 counter-screen | A549 ARE-Fluc cells, CellTiter-Fluor viability, 18-24 h | Potency, µM (highest dose often 46 µM), inactives show top-dose activity change, negative = cytotoxicity, actives largely listed as inhibitors | hit rate 0.16% among 390,000; note: potency is the fitted concentration of half-maximal effect; % is set by controls: 0 for no effect and ±100 for the full control effect
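A549 ARE-Fluc cells in 5% FBS OPTI-MEM, 5000 cells/well, rested 2 h then exposed to compounds in concentration-response for 18-24 h at 37 °C. Viability by CellTiter-Fluor fluorescence (Ex 405/Em 525) after 30 min; luciferase luminescence (BugLite, 15 min, RT) read afterwards.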
Nrf2 activator: Nrf2 pathway activation; AREc32 ARE-luciferase reporter (MCF7-derived line), luminescence, 24 h; Potency, µM (highest dose often 46.1 µM), for inactives: top-dose activation, actives largely listed as activators; hit rate 0.31% among 410,000; AID 624171; note: potency is the fitted concentration of half-maximal effect; % of control where 0% means no effect; nearly all actives have a fitted effect of over 65% in size
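Cells of the AREc32 ARE-luciferase line are plated in OPTI-MEM containing 5% FBS and left overnight at 37 deg C. Compounds are pinned in, incubation continues 24 hr, and firefly luciferase signal is then measured.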
Nrf2 block: Nrf2 pathway inhibition; A549 ARE-Fluc reporter, luciferase luminescence, 18-24 h; Potency, µM (doses to about 46 µM), without a hit: at the highest dose activity change, negative = inhibition, most hits filed as inhibitors; hit rate 2.1% among 360,000; note: potency is the fitted concentration of half-maximal effect; % is set by controls: 0 for no effect and ±100 for the full control effect; nearly all actives have a fitted effect of over 60% in size
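Two sequential reads on A549 ARE_Fluc cells exposed to compound for 18-24 h: a CellTiter-Fluor fluorescence read for viability, then a luciferase luminescence read for Nrf2/ARE activity.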
ClpP mod: qHTS Assay for Activators of ClpP | ATP-dependent Clp protease proteolytic subunit (Bacillus subtilis (strain 168)), P80244 | purified B. subtilis ClpP, FRET peptide cleavage, 20 min | Potency, µM (highest dose often 57.5 µM), for inactives: at the highest dose activity change, negative = active | hit rate 1.9% among 340,000 | AID 651965, 2013; active = well fitted falling curve with a large enough effect; inconclusive = small, poorly fitted or top-dose-only effect; inactive = no such curve, though single readings can be large or run the other way; note: potency is the fitted concentration of half-maximal effect; the source files actives as falling curves though it sought activators and does not explain the sign; nearly all actives have a fitted effect of over 65% in size
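Purified B. subtilis ClpP, 10 microg/mL final in Tris/HCl pH8 with KCl, BSA, glycerol and Tween-20, cleaved an Abz/nitrotyrosine-quenched decapeptide. Fluorescence (ex 320, em 430) was read at 0 and 20 min at room temperature. Delta was normalized to 5.8 microM ADEP and DMSO/no-enzyme controls.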
miR-21 reporter: miR-21 reporter, rising signal | 340,000 tested, under 10 active | AID 2288 | HeLa miR-21 FLuc reporter, luciferase, 48 h | Potency, µM (titrated, usually from 38.3 µM), for inactives: at the highest dose reporter change, positive = more light; active = well fitted rising curve with a large enough effect; inconclusive = small, poorly fitted or top-dose-only effect; inactive = no such curve, though single readings can be large or run the other way;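 further: % of control where 0% means no effect; miR-21 action dims this reporter so a rising signal means less miR-21 action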
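Luminescence from a firefly luciferase reporter carrying a miR-21 binding site downstream, stably expressed under a CMV promoter in HeLa cells that make miR-21 endogenously, reports miRNA modulation after 48 h compound exposure up to approximately 40uM final.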
TCR act: T cell receptor activation; Potency, µM (doses to about 9.22 µM), inactives show top-dose activation of IL-2 secretion, actives largely listed as activators; 330,000 tested, under 10 active; AID 504894; primary human leukocytes, anti-CD3, IL-2 HTRF, 48 h; note: % of control where 0% means no effect
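Human primary leukocytes + a-CD3 beads + cpd, 48 hr; IL-2 in supernatant by HTRF (ex 320nm / em 665nm). No co-stimulatory signal supplied.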
Numbers without * were called inactive; u = inconclusive; x = no result given; [ ] = remark or other dose. Unless noted, calls come from the whole dose curve; as a rule, active = well fitted curve in the direction sought with a large enough effect; inconclusive = small, poorly fitted or top-dose-only effect, or another doubt; inactive = no such curve, though single readings can be large; an effect the other way counts as inactive or inconclusive.

Order of values – TCR act, miR-21 reporter, ClpP mod, A549 tox, Nrf2 block, Nrf2 activator
Cc1ccc(C)c(S(=O)(=O)Nc2ccccc2C(=O)Nc2cc(C)on2)c1
 : -3%, 16%, 16µM*, -25%, -23%, -1%
Cc1cc(NC(=O)c2ccccc2NS(=O)(=O)c2c(C)c(C)cc(C)c2C)no1
 : -2%, -6%, 28µM*, -1%, u, 0%
COc1ccc(-c2onc(C)c2C)cc1S(=O)(=O)NCc1ccco1
 : x, 23%, 0%, -2%, u, 15%
CCOc1cccc(-c2c(C(=O)N/N=C/c3ccsc3)nnn2-c2nonc2N)c1
 : -19%, -5%, -4%, 14%, -7%, -1%
Cc1ccc(S(=O)(=O)N2C[C@H]3C(=O)C[C@@H](c4ccc(Cl)cc4)N(S(=O)(=O)c4ccc(C)cc4)[C@H]3C[C@H]2c2ccccc2)cc1
 : x, x, 0%, x, x, 1%
CC1Sc2n(c3ccccc3[n+]2C)N=C1c1ccccc1 (centres undefined)
 : -1%[46.1 µM], u, 1%, -18%, 12µM*, u
CC[N+](C)(C)c1ccc(/C=C/c2ccnc3ccccc23)cc1
 : x, x, -1%, x, x, x
COc1ccc2oc(C(=O)Nc3nccs3)c(C)c2c1
 : 3%, x, x, 4%, u, 5%
COc1ccc2oc(C(=O)NCCc3ccccc3)c(C)c2c1
 : -1%, x, x, 1%, u, -1%
COc1ccc2oc(C(=O)NCC(c3ccco3)N(C)C)c(C)c2c1 (centres undefined)
 : 1%, x, 28µM*, 8%, u, 6%

The closing five entries of the section above lead into the next:
Order of values – TCR act, miR-21 reporter, ClpP mod, A549 tox, Nrf2 block, Nrf2 activator
CC1Sc2n(c3ccccc3[n+]2C)N=C1c1ccccc1 (centres undefined)
 : -1%[46.1 µM], u, 1%, -18%, 12µM*, u
CC[N+](C)(C)c1ccc(/C=C/c2ccnc3ccccc23)cc1
 : x, x, -1%, x, x, x
COc1ccc2oc(C(=O)Nc3nccs3)c(C)c2c1
 : 3%, x, x, 4%, u, 5%
COc1ccc2oc(C(=O)NCCc3ccccc3)c(C)c2c1
 : -1%, x, x, 1%, u, -1%
COc1ccc2oc(C(=O)NCC(c3ccco3)N(C)C)c(C)c2c1 (centres undefined)
 : 1%, x, 28µM*, 8%, u, 6%
CCCCc1nnc(NC(=O)c2oc3ccc(OC)cc3c2C)s1
 : 5%, x, 32µM*, 1%, -3%, -1%
O=C(N/N=C/c1ccc[nH]1)c1ccc(COc2cccc3cccnc23)cc1
 : -1%, u, x, 7.3µM*, u, 0%
Cc1cc(Br)c(OCc2ccc(C(=O)N/N=C/c3ccc[nH]3)cc2)c(Br)c1
 : 3%, x, 6%, 1.3µM*, 0.52µM*, 0%
Cc1cccc(NC(=O)Cn2cc(C(=O)C3CCCCC3)c3ccccc32)c1
 : x, -1%, -3%, -6%, 7%, 3%
COCCn1c(=S)[nH]c2cc(C(=O)NC3CCCCC3C)ccc2c1=O (centres undefined)
 : x, x, -2%, x, x, -1%
O=c1c(-c2ccc(Cl)cc2)coc2c(CN3CCOCC3)c(O)ccc12
 : 8%, -13%, 28µM*, 2%, u, 2%
O=c1c(-c2ccccc2)coc2c(CN3CCCC3)c(O)ccc12
 : -2%, -8%, 28µM*, 1%, x, 0%
CC1CCCCN1Cc1c(O)ccc2c(=O)c(-c3ccc(Cl)cc3)coc12 (centres undefined)
 : -10%, -57%, 13µM*, -1%, 19%, 2%
Cn1nc(C(C)(C)C)cc1C(=O)NNC(=O)c1ccc(C(F)(F)F)cc1
 : 19%, 10%, -1%, 13%, 21µM*, 2%
COc1ccc(Nc2cnn(-c3nc4ccccc4s3)c(=O)c2Cl)cc1
 : 1%[46.1 µM], -35%, 0%, -13%, u, 10µM*
CCC(=O)N1CCC1(C)C(=O)NCc1ccc(SC)cc1 (centres undefined)
 : x, x, 1%, x, x, 0%
Cc1cccc(C)c1Nc1nnc(SCc2nc3ccccc3s2)s1
 : 0%[46.1 µM], -75%, 14µM*, -6%, u, 14%
COc1cccc(Nc2nnc(SCc3nc4ccccc4s3)s2)c1
 : 0%[46.1 µM], -58%, -3%, -8%, u, 10%
Cc1cc(C)c(S(=O)(=O)Nc2nnc(C(C)C)s2)c(C)c1
 : -2%, 2%, -2%, 1%, -11%, 1%
Oc1ccc(/C=N/Nc2nc(-c3ccc(Cl)cc3)cc(C(F)(F)F)n2)cc1
 : 2%[46.1 µM], u, -6%, u, 16µM*, -3%
CCCNc1nc(C)cc(-c2cc(-c3ccccc3)on2)n1
 : -1%, -18%, u, 1%, -19%, 8%
C/C(=N\Nc1nc(C)cc(-c2ccccc2)n1)c1ccc(F)cc1
 : -10%, 0%, -1%, 23%, u, -1%
Cc1cc(C)nc(N/N=C/c2ccccc2)n1
 : 1%, -52%, -3%, -13%, u, 0%
Nc1nc(-c2ccc(Cl)cc2)cc(C(F)(F)F)n1
 : -8%, -8%, -24%, -3%, 1%, 0%
COc1ccc(/C(C)=N/Nc2nc(C)cc(-c3ccccc3)n2)cc1
 : 1%, x, 0%, -14%, 15µM*, 3%
Cc1cc(-c2ccccc2)nc(N/N=C/c2ccc(O)cc2)n1
 : 3%, x, x, -8%, -28%, 8.9µM*
COc1ccc(Nc2nc(C)cc(-c3cc(-c4ccccc4)on3)n2)cc1
 : 6%, x, 28µM*, -3%, -1%, 0%
CCCC/C=C1/CCC(CN(C)C)C1=O (centres undefined)
 : 6%, x, -4%, -10%, 5%, 3%
Cc1cc2c(s1)c1cnn(Cc3cc(F)c(F)c(F)c3F)c(=O)c1n2C
 : x, x, x, 0%, -11%, x
CCOC(=O)Cn1c(=O)cc(C(F)(F)C(F)(F)F)c2c(C)nn(CC)c21
 : x, -1%, -24%, 4%, u, 0%
O=C(/C=C/c1cc(Br)ccc1F)OCC(=O)N1CCOCC1
 : -4%, x, -2%, -3%, -2%, 11µM*
O=C(/C=C/c1cccc(Cl)c1Cl)OCC(=O)N1CCOCC1
 : 1%, x, -2%, 2%, -2%, 18µM*
O=C(/C=C/c1cc(Br)ccc1F)OCC(=O)N1CCCC1
 : -4%, x, -1%, -1%, 0%, 11µM*
CCCc1cc(C(=O)OCC(=O)NCCc2ccccc2)sc1C
 : x, x, -1%, x, x, -1%
CCCCOc1ncnc2c1[nH]c1ccc(F)cc12
 : -3%, -1%, 16µM*, -17%, 2.1µM*, 4%
CCCCOc1ncnc2c1[nH]c1ccc(OCC)cc12
 : 0%, -14%, -29%, -8%, -2%, 0%
CCCCOc1ncnc2c1[nH]c1ccccc12
 : 1%, 0%, 18µM*, u, 8.2µM*, 7%
CCNc1ccc(/C=C/c2ccnc3ccccc23)cc1
 : x, x, 1%, x, x, x
CCc1nc2c(OCC3COc4ccccc4O3)cccn2c1N(C)C(=O)c1ccc(OC)cc1 (centres undefined)
 : x, x, 0%, x, x, 3%
CC(C)(C)S(=O)N1Cc2cc(=O)n(Cc3ccccc3)c(CCO)c2[C@@H]1CCO (some centres undefined)
 : 5%, x, -14%, -3%, 0%, -1%
CCC1(CC)NC(=O)N(CC(=O)OCc2nc3cc(C(=O)OC)ccc3c(=O)[nH]2)C1=O
 : 2%, x, 28µM*, 1%, -15%, -1%
COC(=O)c1ccc2c(=O)[nH]c(CCl)nc2c1
 : -6%, 1%, x, 3%, -21%, u
